Protein sequences, listed by entry. Tags and fused reporters are not part of them.
UniProt P02829, whole entry: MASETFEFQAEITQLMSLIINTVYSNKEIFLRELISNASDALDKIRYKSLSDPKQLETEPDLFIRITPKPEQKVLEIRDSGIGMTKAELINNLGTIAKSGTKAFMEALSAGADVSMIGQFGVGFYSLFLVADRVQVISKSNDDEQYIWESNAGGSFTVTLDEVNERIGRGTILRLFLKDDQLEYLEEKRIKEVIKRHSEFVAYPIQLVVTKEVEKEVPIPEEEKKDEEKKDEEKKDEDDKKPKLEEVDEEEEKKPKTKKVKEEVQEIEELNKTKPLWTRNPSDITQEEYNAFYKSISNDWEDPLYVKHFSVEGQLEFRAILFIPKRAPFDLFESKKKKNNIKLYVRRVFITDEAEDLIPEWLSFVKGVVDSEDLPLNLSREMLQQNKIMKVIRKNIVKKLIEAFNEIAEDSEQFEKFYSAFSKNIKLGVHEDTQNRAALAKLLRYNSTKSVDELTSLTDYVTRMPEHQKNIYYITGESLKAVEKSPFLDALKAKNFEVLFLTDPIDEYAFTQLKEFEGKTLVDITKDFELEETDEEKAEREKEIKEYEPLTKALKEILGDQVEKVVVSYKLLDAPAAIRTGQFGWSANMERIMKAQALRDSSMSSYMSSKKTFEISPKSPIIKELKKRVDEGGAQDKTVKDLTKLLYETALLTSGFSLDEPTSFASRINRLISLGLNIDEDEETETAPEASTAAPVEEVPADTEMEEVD

In publication PMC11435890, “Enzymatic Hydrolysis of Resorcylic Acid Lactones by an Aeromicrobium sp” (Toxins, 2024):

Target: T1, ScHsp82 (ScHSP82) (Saccharomyces cerevisiae, UniProt P02829)
T1 construct: gene HSP82; Ni-NTA and gel permeation
Experiment: malachite green ATPase inhibition assay
Assay type: biochemical

Q: With `C[C@@H]1C[C@H]2O[C@@H]2/C=C\C=C\C(=O)Cc2c(Cl)c(O)cc(O)c2C(=O)O1` [III, RAD] as the molecule, how does the “% decrease in ATPase activity at 50 μM” value read?
A: Its value is 68%.
